Test results reported in article PMC12471865.

Molecular target: Bruton's tyrosine kinase (BTK) (Homo sapiens, UniProt Q06187)
Assay: BTK degradation (DC50) in TMD-8 cells, […] h; rescued by competition with ibrutinib
Settings: read-out: BTK degradation (DC50) in TMD-8 cells, 8 h, rescued by competition with ibrutini

DC50: 14 nM
Structure (SMILES): Cc1c(C#CCNC(=O)c2ccc(CCNC(=O)CN3CCC[C@@H](n4nc(-c5ccc(Oc6ccccc6)cc5)c5c(N)ncnc54)C3)cc2)cccc1N1CCC(=O)NC1=O
